Measurements: patent publication US20230313146A1, “INTESTINAL EPITHELIAL CELL CULTURES” (ARDELYX, INC., priority 2017, published 2023)

Tested on: mouse duodenal, jejunal, and ileal cultures
Assay: Differentiation of mouse small intestinal monolayer cultures (global gene expression PCC versus tissue, TEER)
Assay type: cell-based
Procedure: Approximately 1 μg of the entire isolated RNA was used to prepare each RNA sequencing library. RNA libraries were prepared using the TruSeq Stranded mRNA library preparation kit (Illumina). Most sequencing data were obtained using a NextSeq500 sequencer (Illumina) (2×75 bp, ˜ 30-40 million reads per sample) and some sequencing was performed using a HiSeq sequencer (Illumina) (2×125 bp, ˜ 25-30 million reads per sample). Transcript counts were obtained using the RNA Express application (RNA-Seq reads aligned with the STAR aligner) on the Illumina BaseSpace website.
Pearson correlation coefficients were determined in Microsoft Excel using the Pearson function comparing the transcript count correlation for all genes between two data sets.
On day 2, fresh W2.5ENRY was added to the cultures, and was replaced on day 4. Confluence of the culture was assessed by measuring the TEER. […]
Therefore, global gene expression by RNA sequencing was obtained for 36 culture conditions, taken 4, 6, and 8 days after seeding the cultures, and compared with the gene expression profiles of mouse jejunal villi and crypts. To simplify analysis and to account for changes in global gene expression rather than relying on a handful of marker genes, the Pearson correlation coefficient (PCC) was calculated for the relationship between the gene expression profiles of cultured cells and of mouse jejunal villus cells. […]

B1: BMP 2: human BMP-2 (Peprotech), bone morphogenetic protein used as differentiation promoting factor (protein, UniProt P12643 283-396, looked up)
Bone morphogenetic protein 2: QAKHKQRKRLKSSCKRHPLYVDFSDVGWNDWIVAPPGYHAFYCHGECPFPLADHLNSTNHAIVQTLVNSVNSKIPKACCVPTELSAISMLYLDENEKVVLKNYQDMVVEGCGCR
**Q.** Which results are given for B1?
**A.** correlation of gene expression of cultures with tissues in the jejunum and ileum (PCC) (100 ng/mL, dose titration of individual BMPs): strong correlations of gene expression; effectiveness at differentiating mouse duodenal, jejunal, and ileal cultures (compared with the BMP mixture (BMP 2, 4, and 7)): as effective as the BMP mixture
